# PubChem BioAssay AID1063 (University of Pittsburgh Molecular Library Screening Center, 2008)
# The list shows a part of the results, in another mix than the full data. Some results for these compounds are left out of this collection, so the calls shown say nothing about other tests. Active and inactive are the calls of the source. Cut-off read from the data, not from the text of the source: active = inhibition above about 50%; inactive = the rest.
# Assay: antileishmanial activity against promastigotes – primary screen (AID 1063);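 note: promastigotes grown with compound for 44 hours at 28 °C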
# Details: Leishmania major promastigotes, resazurin fluorescence viability; at 10 µM; hits give high values
row,SMILES,inhibition
1,CN(C)C1CCCC1OC(=O)C(O)(c1ccccc1)c1ccccc1 (centres undefined),inactive: -5.45%
2,Cc1ccccc1C(=O)NCC1(N2CCCCC2)CCCCC1,inactive: 3.66%
3,C=CCN1CCN(CCOC(=O)C(O)(c2ccccc2)c2ccccc2)CC1,inactive: -3.84%
4,CCN1CCCC(OC(=O)C2(O)c3ccccc3C=Cc3ccccc32)C1 (centres undefined),inactive: 7.62%
5,O=C(NCC1(N2CCCCC2)CCCCC1)c1cc([N+](=O)[O-])ccc1Cl,inactive: 22.3%
6,CC(C)N1C(=O)CC2(CCN(CCOC(=O)C(O)(c3ccccc3)c3ccccc3)CC2)C1=O,inactive: -4.79%
7,O=C(OC1CN2CCC1CC2)C(CO)(c1ccccc1)c1ccccc1 (centres undefined),inactive: 3.7%
8,CN(C)c1cccc(C(=O)NCC2(N(C)C)CCCCC2)c1,inactive: -0.31%
9,COc1cccc(C(=O)NCC2(N3CCCCC3)CCCCC2)c1,inactive: -0.43%
